# Measurements: patent publication US20110207751A1, “HETEROCYCLIC COMPOUNDS AND USES AS ANTICANCER AGENTS” (priority 2010, published 2011)
# Test system: tubulin (colchicine-binding site)
# Experiment: Spin column assay with [^3H]colchicine
# Conditions: tubulin with [^3H]colchicine and unlabeled competitor, 37° C. 1 h
# Procedure: Spin column assay. […] The reaction mixtures were incubated at 37° C. for 1 h. The samples were loaded onto Illustra™ MicroSpin™ G-50 columns (GE Healthcare) previously equilibrated with the buffer solution. The columns were placed into 1.5-ml tubes and spun at 750 g for 2 min at room temperature, and radioactivity in the flow-through was analyzed by a scintillation counter.
compound,measurement,value
COc1cc2c(c(OC)c1OC)-c1ccc(OC)c(=O)cc1[C@@H](NC(C)=O)CC2 [colchicine],amount of [^3H]colchicine in the flow-through,reduced the amount of [^3H]colchicine found in the flow-through in a concentration-dependent manner
